Source: PubChem BioAssay (NCI)
Some results for these compounds are left out of this collection, so the calls shown say nothing about other tests.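 These data come from cells grown in 96-well plates and exposed to compound for 48 hours at five concentrations. At the GI50, growth is halved. TGI is the concentration that stops growth completely.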

Columns and labels:
Test in all cases: NCI anticancer screen, dose series, 48 h
EKVX NSCLC = system: EKVX NSCLC
NCI/ADR-RES ovarian = system: NCI/ADR-RES ovarian
UO-31 renal = system: UO-31 renal
SK-OV-3 ovarian = system: SK-OV-3 ovarian
COLO 205 colon = system: COLO 205 colon
MDA-MB-231 breast = system: MDA-MB-231 breast
NCI-H23 lung = system: NCI-H23 lung
786-0 renal = system: 786-0 renal
SK-MEL-2 melanoma = system: SK-MEL-2 melanoma
NCI-H322M lung = system: NCI-H322M lung
HT29 colon = system: HT29 colon
HOP-62 NSCLC = system: HOP-62 NSCLC
HCC-2998 colon = system: HCC-2998 colon
SW-620 colon = system: SW-620 colon
T-47D breast = system: T-47D breast
SN12C renal = system: SN12C renal
OVCAR-4 ovarian = system: OVCAR-4 ovarian
UACC-257 melanoma = system: UACC-257 melanoma
NCI-H522 lung = system: NCI-H522 lung
MALME-3M melanoma = system: MALME-3M melanoma
SNB-75 CNS = system: SNB-75 CNS
IGROV1 ovarian = system: IGROV1 ovarian
SF-268 CNS = system: SF-268 CNS
HCT-15 colon = system: HCT-15 colon
ACHN renal = system: ACHN renal
LOX IMVI melanoma = system: LOX IMVI melanoma
A549 NSCLC = system: A549 NSCLC
KM12 colon = system: KM12 colon
NCI-H226 lung = system: NCI-H226 lung
K-562 leukemia = system: K-562 leukemia
HL-60(TB) leukemia = system: HL-60(TB) leukemia
SF-295 CNS = system: SF-295 CNS
CAKI-1 renal = system: CAKI-1 renal
UACC-62 melanoma = system: UACC-62 melanoma
SK-MEL-28 melanoma = system: SK-MEL-28 melanoma
TK-10 renal = system: TK-10 renal
M14 melanoma = system: M14 melanoma
MDA-N = system: MDA-N
MOLT-4 leukemia = system: MOLT-4 leukemia
RXF 393 renal = system: RXF 393 renal
MDA-MB-435 = system: MDA-MB-435
A498 renal = system: A498 renal
HS 578T breast = system: HS 578T breast
SK-MEL-5 melanoma = system: SK-MEL-5 melanoma
PC-3 prostate = system: PC-3 prostate
SNB-19 CNS = system: SNB-19 CNS
OVCAR-3 ovarian = system: OVCAR-3 ovarian
RPMI-8226 leukemia = system: RPMI-8226 leukemia
U251 CNS = system: U251 CNS
SF-539 CNS = system: SF-539 CNS
OVCAR-5 ovarian = system: OVCAR-5 ovarian
HCT-116 colon = system: HCT-116 colon
DU-145 prostate = system: DU-145 prostate
NCI-H460 lung = system: NCI-H460 lung
OVCAR-8 ovarian = system: OVCAR-8 ovarian
CCRF-CEM leukemia = system: CCRF-CEM leukemia
SR leukemia = system: SR leukemia

CC#CC(O)(C(=O)OC1CCN(C)C1)c1ccccc1 (centres undefined)
GI50 (EKVX NSCLC): > 100 µM
TGI (EKVX NSCLC): > 100 µM
GI50 (NCI/ADR-RES ovarian): > 100 µM
TGI (NCI/ADR-RES ovarian): > 100 µM
GI50 (UO-31 renal): > 100 µM
TGI (UO-31 renal): > 100 µM
GI50 (SK-OV-3 ovarian): > 100 µM
TGI (SK-OV-3 ovarian): > 100 µM
GI50 (COLO 205 colon): > 100 µM
TGI (COLO 205 colon): > 100 µM
GI50 (MDA-MB-231 breast): > 100 µM
TGI (MDA-MB-231 breast): > 100 µM
GI50 (NCI-H23 lung): > 100 µM
TGI (NCI-H23 lung): > 100 µM
GI50 (786-0 renal): > 100 µM
TGI (786-0 renal): > 100 µM
GI50 (SK-MEL-2 melanoma): > 100 µM
TGI (SK-MEL-2 melanoma): > 100 µM
GI50 (NCI-H322M lung): > 100 µM
TGI (NCI-H322M lung): > 100 µM
GI50 (HT29 colon): > 100 µM
TGI (HT29 colon): > 100 µM
GI50 (HOP-62 NSCLC): > 100 µM
TGI (HOP-62 NSCLC): > 100 µM
GI50 (HCC-2998 colon): > 100 µM
TGI (HCC-2998 colon): > 100 µM
GI50 (SW-620 colon): > 100 µM
TGI (SW-620 colon): > 100 µM
GI50 (T-47D breast): > 100 µM
TGI (T-47D breast): > 100 µM
GI50 (SN12C renal): > 100 µM
TGI (SN12C renal): > 100 µM
GI50 (OVCAR-4 ovarian): > 100 µM
TGI (OVCAR-4 ovarian): > 100 µM
GI50 (UACC-257 melanoma): > 100 µM
TGI (UACC-257 melanoma): > 100 µM
GI50 (NCI-H522 lung): > 100 µM
TGI (NCI-H522 lung): > 100 µM
GI50 (MALME-3M melanoma): > 100 µM
TGI (MALME-3M melanoma): > 100 µM
GI50 (SNB-75 CNS): > 100 µM
TGI (SNB-75 CNS): > 100 µM
GI50 (IGROV1 ovarian): > 100 µM
TGI (IGROV1 ovarian): > 100 µM
GI50 (SF-268 CNS): > 100 µM
TGI (SF-268 CNS): > 100 µM
GI50 (HCT-15 colon): > 100 µM
TGI (HCT-15 colon): > 100 µM
GI50 (ACHN renal): > 100 µM
TGI (ACHN renal): > 100 µM
GI50 (LOX IMVI melanoma): 0.182 µM
TGI (LOX IMVI melanoma): 15.4 µM
GI50 (A549 NSCLC): > 100 µM
TGI (A549 NSCLC): > 100 µM
GI50 (KM12 colon): > 100 µM
TGI (KM12 colon): > 100 µM
GI50 (NCI-H226 lung): > 100 µM
TGI (NCI-H226 lung): > 100 µM
GI50 (K-562 leukemia): > 100 µM
TGI (K-562 leukemia): > 100 µM
GI50 (HL-60(TB) leukemia): > 100 µM
TGI (HL-60(TB) leukemia): > 100 µM
GI50 (SF-295 CNS): 0.359 µM
TGI (SF-295 CNS): 22.3 µM
GI50 (CAKI-1 renal): > 100 µM
TGI (CAKI-1 renal): > 100 µM
GI50 (UACC-62 melanoma): > 100 µM
TGI (UACC-62 melanoma): > 100 µM
GI50 (SK-MEL-28 melanoma): > 100 µM
TGI (SK-MEL-28 melanoma): > 100 µM
GI50 (TK-10 renal): > 100 µM
TGI (TK-10 renal): > 100 µM
GI50 (M14 melanoma): > 100 µM
TGI (M14 melanoma): > 100 µM
GI50 (MDA-N): > 100 µM
TGI (MDA-N): > 100 µM
GI50 (MOLT-4 leukemia): > 100 µM
TGI (MOLT-4 leukemia): > 100 µM
GI50 (RXF 393 renal): > 100 µM
TGI (RXF 393 renal): > 100 µM
GI50 (MDA-MB-435): > 100 µM
TGI (MDA-MB-435): > 100 µM
GI50 (A498 renal): > 100 µM
TGI (A498 renal): > 100 µM
GI50 (HS 578T breast): > 100 µM
TGI (HS 578T breast): > 100 µM
GI50 (SK-MEL-5 melanoma): > 100 µM
TGI (SK-MEL-5 melanoma): > 100 µM
GI50 (PC-3 prostate): > 100 µM
TGI (PC-3 prostate): > 100 µM
GI50 (SNB-19 CNS): > 100 µM
TGI (SNB-19 CNS): > 100 µM
GI50 (OVCAR-3 ovarian): > 100 µM
TGI (OVCAR-3 ovarian): > 100 µM
GI50 (RPMI-8226 leukemia): > 100 µM
TGI (RPMI-8226 leukemia): > 100 µM
GI50 (U251 CNS): > 100 µM
TGI (U251 CNS): > 100 µM
GI50 (SF-539 CNS): > 100 µM
TGI (SF-539 CNS): > 100 µM
GI50 (OVCAR-5 ovarian): 0.443 µM
TGI (OVCAR-5 ovarian): > 100 µM
GI50 (HCT-116 colon): > 100 µM
TGI (HCT-116 colon): > 100 µM
GI50 (DU-145 prostate): > 100 µM
TGI (DU-145 prostate): > 100 µM
GI50 (NCI-H460 lung): > 100 µM
TGI (NCI-H460 lung): > 100 µM
GI50 (OVCAR-8 ovarian): > 100 µM
TGI (OVCAR-8 ovarian): > 100 µM
GI50 (CCRF-CEM leukemia): > 100 µM
TGI (CCRF-CEM leukemia): > 100 µM
GI50 (SR leukemia): > 100 µM
TGI (SR leukemia): > 100 µM
